From US5814600A, “Method and composition for treatment of insulin requiring mammals” (Amylin Pharmaceuticals Inc., priority 1994, dated 1998)

Test: 14-day clinical study: tripro-amylin plasma peaks
Type: in vivo, human
Source text: In a 14-day double-blind, placebo controlled clinical study, for example, patients with juvenile-onset diabetes who continued their usual insulin therapy and self-injected tripro-amylin three times daily had lower average blood glucose levels after a test meal than did patients who received insulin and placebo. […] See also Table 2 below. […] These thrice-daily doses of tripro-amylin reflect per day dosages of, respectively, 90, 300, and 900 micrograms per patient. For a patient of average weight, about 70 kg, these reflect doses of 1.3 μg/kg/day, 4.3 μg/kg/day, and 12.9 μg/kg/day. An average per day insulin dose is about 50 units, or 2000 micrograms.

SMILES: CC[C@H](C)[C@H](NC(=O)[C@@H]1CCCN1C(=O)CNC(=O)[C@H](Cc1ccccc1)NC(=O)[C@H](CC(N)=O)NC(=O)[C@H](CC(N)=O)NC(=O)[C@H](CO)NC(=O)[C@H](CO)NC(=O)[C@H](Cc1c[nH]cn1)NC(=O)[C@@H](NC(=O)[C@H](CC(C)C)NC(=O)[C@H](Cc1ccccc1)NC(=O)[C@H](CC(N)=O)NC(=O)[C@H](C)NC(=O)[C@H](CC(C)C)NC(=O)[C@H](CCCNC(=N)N)NC(=O)[C@H](CCC(N)=O)NC(=O)[C@@H](NC(=O)[C@H](C)NC(=O)[C@@H]1CSSC[C@H](NC(=O)[C@@H](N)CCCCN)C(=O)N[C@@H](CC(N)=O)C(=O)N[C@@H]([C@@H](C)O)C(=O)N[C@@H](C)C(=O)N[C@@H]([C@@H](C)O)C(=O)N1)[C@@H](C)O)C(C)C)C(=O)N[C@@H](CC(C)C)C(=O)N1CCC[C@H]1C(=O)N1CCC[C@H]1C(=O)N[C@H](C(=O)N[C@@H](CC(N)=O)C(=O)N[C@H](C(=O)NCC(=O)N[C@@H](CO)C(=O)N[C@@H](CC(N)=O)C(=O)N[C@H](C(=O)N[C@@H](Cc1ccc(O)cc1)C(N)=O)[C@@H](C)O)C(C)C)[C@@H](C)O [tripro-amylin, ^25,28,29 Pro-human-amylin]
- Tripro-amylin plasma peaks (30 micrograms 3 times daily): 22 ± 4 picomoles
- Tripro-amylin plasma peaks (100 micrograms 3 times daily): 44 ± 14 picomoles
- Tripro-amylin plasma peaks (300 micrograms 3 times daily): 173 ± 40 picomoles
